# Screening results (PubChem)
# This is a sample that favours compounds with a hit; in the whole collection about 0.62% have one here.
# TSHR antag: antagonists of human thyroid stimulating hormone receptor; TSHR-expressing cells, TSH-stimulated cAMP HTRF, 2 h; hits give low values; 330,000 compounds, 0.2% hits; P16473; activity change, negative = inhibition, % at 11.5 µM;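 active means activity change below a set negative limit, meaning inhibition stronger than a set level, cut at about -70% in these data; inconclusive means activity change between two set negative limits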; further: on the % scale 0 is the no-effect control and ±100 the full control effect
#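 Read-out is FRET at 665 nm (cryptate excitation 337 nm) from a cryptate-tagged anti-cAMP antibody, competed by cell cAMP against cAMP-d2. Compounds are tested on freshly harvested TSHR cells challenged with 4nM TSH (EC80) for 2 hours at 37 deg C.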
# pAkt inh: blocks phosphorylation of Akt; Neuro2A IGF-stimulated pAkt S473 HTRF, 20 min; hits give low values; AID 651550; activity change, % for hits at 50 µM; 360,000 compounds, 0.32% hits; in the data active means activity change below about -80%; inconclusive means mostly about -51% to -80%; further: on the % scale 0 is the no-effect control and ±100 the full control effect
#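 Neuro2A cells (4,500/well, DMEM with 0.5% FBS) were treated with compound at a single 50 µM final concentration, stimulated with 6 nM IGF for 20 min at 37 °C, and lysed. Phospho-Akt Ser473 was read by HTRF as 665/615 ratio ×10^4.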
# Rango-impB inh: Rango-importin beta binding inhibition. Q14974. Rango CFP/YFP FRET sensor + importin beta, 45 min. Potency, µM (titrated, usually from 92.2 µM), for inactives: at the top dose inhibition of complex formation. 340,000 compounds, 0.031% hits;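 further: potency means the concentration at half of the fitted maximal effect; 0% = DMSO wells and 100% = buffer wells lacking importin beta; nearly all actives have a fitted effect of over 15% in size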
#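 Inhibition scored from the CFP 486 nm/YFP 530 nm FRET ratio 45 min after adding 0.125 microM importin beta to 50 nM Rango biosensor preincubated 5 min with compound (room temperature, PBS with DTT, Tween-20, BSA). No-importin wells as positive control.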
# p53 reactivation: re-activators of mutant p53. 320,000 compounds, 0.063% hits. Potency, µM (highest dose often 92.2 µM), without a hit: at the highest dose activity change, positive = activation, most hits filed as activators. AID 504706. H1299 p53-A138V BP100-luciferase reporter, luminescence, 24 h; active means well fitted activation curve with a large enough effect; inconclusive means small, poorly fitted or top-dose-only effect; inactive means no such curve, though single readings can be large or run the other way; further: potency means the concentration at half of the fitted maximal effect; % of control where 0% means no effect; nearly all actives have a fitted effect of over 45% in size
#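 p53-null H1299 cells stably carrying temperature-sensitive p53-A138V and a BP100-luciferase reporter were pinned with compounds (4-point, 1:5 series) and held 24 hrs at 37 deg C. Luminescence was read 10 min after detection reagent.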
# Rango dissoc inh: inhibition of RanGTP-driven Rango-importin beta dissociation; Potency, µM (series often up to 46.1 µM), for inactives: top-dose activity change, negative = inhibition; O95149+P62826; Biochemical FRET Rango-importin beta, RanGTP-induced dissociation; 340,000 compounds, 0.071% hits; AID 540253; further: potency means the concentration at half of the fitted maximal effect; % of control where 0% means no effect; nearly all actives have a fitted effect of over 45% in size
#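 Two FRET readings bracket the reaction: one 5 min after compound meets Rango–importin beta, another 45 min after RanGTP-RCC1 (0.6 uM Ran, 0.2 uM RCC1, 2 mM GTP) is added. Only the second defines inhibition.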
# The depositor's hits bear a star; i = inactive; ? = inconclusive; / = no result given. Unless noted, the call rests on the fitted dose curve.
TSHR antag | pAkt inh | Rango-impB inh | p53 reactivation | Rango dissoc inh | mol
-5 | i | -1% | 6% | -9% | CCOc1ccc2nc(NC(=O)c3ccc(S(=O)(=O)N4CCOCC4)cc3)sc2c1
2 | i | 0% | -3% | -3% | Cc1ccc(-c2csc(NC(=O)c3cc([N+](=O)[O-])ccc3N3CCOCC3)n2)cc1
-30 | i | 65µM* | -25% | -5% | CCOc1cccc(C(=O)Nc2nc(-c3ccc(S(=O)(=O)N4CCOCC4)cc3)cs2)c1
-20 | / | / | / | / | Fc1cccc(CNc2ncnc3ccc(-c4ccccc4Cl)cc23)c1
-1 | i | -3% | -13% | -17% | CCCC(=O)Nc1ccc(C=C(C(C)=O)C(C)=O)cc1
-29 | i | ? | -13% | 15µM* | Cc1ccc(S(=O)(=O)c2c(N)n(-c3ccccc3)c3nc4ccccc4nc23)cc1
-1 | i | ? | 5% | ? | CCCCn1c(N)c(S(=O)(=O)c2ccc(C)cc2)c2nc3ccccc3nc21
-8 | i | 0% | 13% | 1% | CCNC(=S)N/N=C/c1cccc(OCc2c(F)cccc2Cl)c1
-11 | i | 3% | 13µM* | 32% | Cc1ccccc1N=C1NN=C(c2ccccc2F)CS1
/ | i | -3% | / | 2% | Cc1nn(-c2ccccc2)c2c1CC(=O)Nc1ccccc1-2
-4 | i | ? | -4% | 8.2µM* | CCC1OC2(C)OC(=N)C1(C#N)C(C#N)(C#N)C2c1ccccc1 (configuration not stated)
-20 | i | -5% | -5% | -3% | CC(=O)Oc1ccc(C(=O)Nc2cc(C)ccc2NC(=O)COc2ccccc2)cc1
19 | i | -2% | 2% | 8% | Cc1ccc(C(=O)Nc2ccon2)cc1S(=O)(=O)N1CCCC1
? | -108%* | -1% | -19% | -3% | O=S1(=O)C=C(Sc2nc3ccccc3s2)c2ccccc21
-1 | i | 3% | -39% | -2% | Cc1cc(C)nc(SC2=CS(=O)(=O)c3ccccc32)n1
8 | / | / | / | / | CCN1C(=NCc2cc(OC)c(OC)c(OC)c2)N[C@@H](c2cccc(F)c2)C(C(=O)OC)=C1C

# An excerpt from above in order of count of non-hydrogen atoms, rising:
TSHR antag | pAkt inh | Rango-impB inh | p53 reactivation | Rango dissoc inh | mol
-1 | i | 3% | -39% | -2% | Cc1cc(C)nc(SC2=CS(=O)(=O)c3ccccc32)n1
-11 | i | 3% | 13µM* | 32% | Cc1ccccc1N=C1NN=C(c2ccccc2F)CS1
19 | i | -2% | 2% | 8% | Cc1ccc(C(=O)Nc2ccon2)cc1S(=O)(=O)N1CCCC1
-8 | i | 0% | 13% | 1% | CCNC(=S)N/N=C/c1cccc(OCc2c(F)cccc2Cl)c1
-20 | i | -5% | -5% | -3% | CC(=O)Oc1ccc(C(=O)Nc2cc(C)ccc2NC(=O)COc2ccccc2)cc1
8 | / | / | / | / | CCN1C(=NCc2cc(OC)c(OC)c(OC)c2)N[C@@H](c2cccc(F)c2)C(C(=O)OC)=C1C

# Further results follow:
TSHR antag | pAkt inh | Rango-impB inh | p53 reactivation | Rango dissoc inh | mol
/ | i | / | / | / | C#Cc1cccc(Nc2nc(NCc3ccccc3)nc3ccsc23)c1
0 | -110%* | -7% | -2% | -6% | Cc1cccc(NC(=O)C2CCCN(C(=O)Nc3ccccc3)C2)c1C (configuration not stated)
-4 | i | -2% | 4% | -9% | Cc1ccccc1NC(=O)C1CCCN(C(=O)Nc2ccc(F)cc2)C1 (configuration not stated)
2 | i | 3% | 3% | 10% | Cc1ccc(NC(=O)NNS(=O)(=O)c2ccc(Br)cc2)cc1
-75* | i | 0% | 21% | 0% | Cc1ccc(S(=O)(=O)NC(=O)Nc2ccc(N(C)C)cc2)cc1
-7 | i | 4% | -4% | -4% | O=c1ccn(-c2cccc(C(F)(F)F)c2)nc1-c1ccn(-c2ccccc2)n1
0 | i | ? | 3% | -27% | O=C1c2nc3cc(-c4ccccc4)[nH]n3c(=O)c2CN1Cc1ccccc1
-79* | i | ? | 0% | 3% | CC(C)(C)c1cc2nc3c(c(=O)n2[nH]1)CN(Cc1ccccc1)C3=O
11 | i | 2% | -3% | 8% | COc1ccc(C(C(=O)NCC2CCCO2)N(Cc2ccc(F)cc2)C(=O)CNC(=O)c2ccco2)cc1OC (configuration not stated)
-3 | -104%* | -1% | -10% | -2% | C1CCC(Nc2nnnn2C2CCCCC2)CC1
6 | i | 0% | -10% | -1% | C1CCC(n2nnnc2CN2CCN(C3CCCC3)CC2)CC1
-77* | i | 2% | -11% | 12% | N/C(Cc1ccc([N+](=O)[O-])cc1)=N\OC(=O)Cc1ccc(Cl)cc1
14 | -105%* | -1% | 15% | 9% | O=C(Cn1cc(C(=O)c2ccco2)c2ccccc21)NCc1ccco1
-16 | -96%* | -1% | -5% | 1% | O=C(Oc1ccnc2cc(Cl)ccc12)N1CCCCCC1
0 | -124%* | -3% | -14% | -13% | O=C(c1cc2ccccc2oc1=O)N(Cc1ccccc1)Cc1ccc2c(c1)OCO2
12 | i | -8% | 0% | -23% | O=C(c1cc2ccccc2oc1=O)N1CCN(Cc2ccc3c(c2)OCO3)CC1
-8 | i | ? | -10% | ? | Cc1nc(SCC(=O)Nc2nc3ccccc3s2)c(C#N)c(C)c1C
-1 | i | ? | -7% | 0% | CCN(CC)C(=O)CSc1nc(N)c(C#N)c(-c2cccs2)c1C#N
-18 | -101%* | -2% | ? | 12% | Cc1ccccc1NC(=O)CSc1nc(N)c(C#N)c(-c2cccs2)c1C#N
11 | i | ? | -1% | 21µM* | CCOC(=O)CC(=O)CSc1nc2c(c(-c3cccs3)c1C#N)CCC2
-7 | -96%* | ? | 0% | 21% | CCOc1ccccc1NC(=O)CSc1nc(N)c(C#N)cc1C#N
7 | i | ? | -1% | -8% | COc1ccccc1NC(=O)CSc1nc(N)c(C#N)cc1C#N
57 | i | ? | 41% | 26µM* | Cc1nc(SCC(=O)Nc2nccs2)c(C#N)c(C)c1C
-22 | i | ? | 3% | -29% | Cn1c(=O)c(Nc2ccc(Cl)cc2)c2c3c(cccc31)C(=O)c1ccccc1-2
-9 | -113%* | ? | -5% | ? | CC(=O)Nc1c2c3c(cccc3n(C)c1=O)C(=O)c1ccccc1-2
-9 | -123%* | 4% | 11% | 12% | OC(COc1ccc2c(c1)CCC2)Cn1cnc2ccccc21 (configuration not stated)
-32 | -117%* | -1% | 3% | 2% | N#Cc1cn(CCOc2ccc(F)cc2)c2ccccc12
-5 | i | -2% | 6% | 17% | N#Cc1cn(CCOc2ccccc2F)c2ccccc12
3 | i | -1% | / | -3% | O=C1N=C(N2CCCC2)S/C1=C\C=C\c1ccccc1
15 | -114%* | -7% | 14% | -8% | O=C(NC(=S)N1CCCc2ccccc21)c1ccccc1
-14 | -122%* | -1% | 6% | 7% | CCNC(=O)NC(=O)C(C)Sc1nc2cc(C(=O)OC)ccc2c(=O)n1-c1ccccc1 (configuration not stated)
1 | i | 3% | -7% | -5% | CCNC(=O)NC(=O)C(C)Sc1nc2ccccc2c(=O)n1-c1cccnc1 (configuration not stated)
3 | -108%* | 2% | 0% | 10% | CCCCC(=O)Nc1ccc(NC(=O)c2ccccc2OC)cn1
-12 | -113%* | 1% | 5% | 3% | Nc1ncnc2nc(SCc3ccccc3)[nH]c12
